The term IC50 denotes the concentration at which inhibition is half-maximal. Higher therefore signals a need for much substance.

≈ marks a conversion by molar mass, not a printed value.

These results are taken from US5789386A, “Fluorine-containing anthracycline derivatives having hydroxyl groups(s) mono- or di-o-aminoalkanoylated in the sugar moiety thereof” (priority 1995, dated 1998).

The test has as its system adriamycin-resistant P388 cells (P388/ADR). The test can be described thus: In vitro growth inhibition of adriamycin-resistant P388 cells (P388/ADR), 72 hours. Particulars: test compounds as trifluoroacetate. Type of test: cell-based, mouse.

With `COc1cccc2c1C(=O)c1c(O)c3c(c(O)c1C2=O)C[C@@](O)(C(=O)CO)C[C@@H]3O[C@H]1C[C@H](OC(=O)CN)[C@H](OC(=O)CN)[C@H](C(F)(F)F)O1` [Compound 25, 7-O-(2,6-dideoxy-6,6,6-trifluoro-3,4-di-O-glycyl-α-L-lyxo-hexopryranosyl)adriamycinone], the IC50 came out at 0.29 µg/mL (≈ 0.407 µM).
